This note sets out measurements from article PMC8625360, “Direct Interaction of ATP7B and LC3B Proteins Suggests a Cooperative Role of Copper Transportation and Autophagy” (Cells, 2021).

Common to all, as to assay: fluorescence polarisation; 25 µL CF-labelled peptide at 2.5 µM combined with 25 µL LC3B at 0.2-330 µM, black 384-well plate; HEPES buffer (50 mM HEPES pH 7.2, 50 mM NaCl, 2 mM DTE); one site-specific binding fit; three replications
In general terms: In fluorescence polarisation assays a small probe gives low polarisation when free and higher when bound to something large.

The target in experiment [1] is LIR3 peptide of ATP7B phosphorylated at S1453, CF-labelled.
Experiment [2] addresses LIR3 peptide of ATP7B, CF-labelled (native).
Experiment [3] deals with LIR3 peptide of ATP7B with L1455A, CF-labelled.
The target of experiment [4] is LIR3 peptide of ATP7B with W1452A, CF-labelled.
Experiment [5] addresses LIR2 peptide of ATP7B, CF-labelled.
Experiment [6] deals with LIR1 peptide of ATP7B, CF-labelled.
Experiment [7] concerns the target LIR3 peptide of ATP7B with W1452A/L1455A, CF-labelled.

What is called Kd is a measure of binding affinity in units of concentration. Consider “LC3B protein (microtubule-associated protein light chain 3B), purified, tags removed (from UniProt Q9GZQ8 1-120) (natural protein)”, for which the Kd in experiment [1] was 12.9 µM; in experiment [2] it was 3.72 µM; in experiment [3], 43 µM; in experiment [4], over 250 µM; in experiment [5], over 250 µM; in experiment [6] it was over 250 µM. The Kd in experiment [7] was over 250 µM.
